Measured values: PMC8923076 (Cell chemical biology, 2021)
Values belong to the molecule of their own block, whether it stands above or below them.

The chains behind the UniProt entries cited, without tags or fusion partners. Residues count along the entry.
UniProt O95619, 1-148: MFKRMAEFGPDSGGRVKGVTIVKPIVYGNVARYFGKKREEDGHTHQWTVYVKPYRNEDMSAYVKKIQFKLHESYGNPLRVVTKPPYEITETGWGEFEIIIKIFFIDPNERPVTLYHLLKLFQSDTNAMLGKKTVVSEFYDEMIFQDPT
UniProt O95619, whole entry: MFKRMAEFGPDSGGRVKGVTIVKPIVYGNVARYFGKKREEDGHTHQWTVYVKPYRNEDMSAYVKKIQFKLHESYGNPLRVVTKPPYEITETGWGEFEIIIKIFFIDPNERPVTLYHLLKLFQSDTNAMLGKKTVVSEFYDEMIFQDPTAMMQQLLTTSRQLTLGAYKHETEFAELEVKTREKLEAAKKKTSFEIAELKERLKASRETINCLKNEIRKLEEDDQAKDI

Experiments:
[1] = target: GST-GAS41(1–148) YEATS domain (Homo sapiens, UniProt O95619); test: Fluorescence polarization; assay type: binding; conditions: read-out: IC50 FP; 1 μM GST-GAS41(1–148), 25 nM FAM-H3K23crK27cr; mean ± s.d., two experiments
[2] = target: his6-tagged full-length GAS41 (Homo sapiens, UniProt O95619); test: AlphaScreen competition assay with biotin-H3K23crK27cr peptide; assay type: binding; conditions: read-out: IC50 AlphaScreen; 100 nM MOCR-his6-GAS41 full-length, 25 nM H3K23crK27cr-biotin; mean ± s.d., two experiments
[3] = target: GST-fused GAS41 YEATS domain (Homo sapiens, UniProt O95619); test: FP direct binding of FAM-H3K23crK27cr; conditions: read-out: KD (FP binding); binding to GST-fused GAS41 YEATS domain
[4] = target: MOCR-his6-GAS41 (full-length) (human, UniProt O95619 1-227); test: AlphaScreen or HTRF
[5] = target: T1, GST-fused GAS41 YEATS domain (residues 1-148) (human, UniProt O95619 1-148); test: fluorescence polarisation
[6] = target: T1, GST-fused GAS41 YEATS domain (residues …); test: fluorescence polarisation; remark: listed apart in the source

IC50 [4]: 1.9 µM
B1: H3K18acK27ac peptide (peptide)
peptide: GGKAPRKQLATKAARKSAP
modifications: N-terminal acetyl; acetyl-lysine at K18 and K27; C-terminal amide

IC50 [5]: 53 µM
IC50 [4]: 1.4 µM
B2: H3K14acK27ac peptide (peptide)
peptide: RKSTGGKAPRKQLATKAARKSAP
modifications: N-terminal acetyl; acetyl-lysine at K14 and K27; C-terminal amide

IC50 [5]: 243 µM
IC50 [4]: 24 µM
B4: H3K27ac peptide (peptide)
peptide: ATKAARKSAP
modifications: N-terminal acetyl; acetyl-lysine at K27; C-terminal amide

The next lines start with the molecule.

Molecule: Ac-ATKAAR{K-Ac}SAP-NH2 [Compound H3K27ac]
IC50 [1]: 243 ± 45 µM
IC50 [2]: 24 ± 8 µM

Molecule: Ac-GGKAPR{K-Ac}QLATKAAR{K-Ac}SAP-NH2 [Compound H3K18acK27ac]
IC50 [1]: 50 ± 9 µM
IC50 [2]: 1.9 ± 0.2 µM

Molecule: Ac-RKSTGG{K-Ac}APRKQLATKAAR{K-Ac}SAP-NH2 [Compound H3K14acK27ac]
IC50 [1]: 53 ± 3 µM
IC50 [2]: 1.4 ± 0.4 µM

Molecule: FAM-QLAT[K-cr]AAR[K-cr]SAPA-NH2 [FAM-H3K23crK27cr]
Kd [3]: 1.3 µM

B3: FAM-H3K23crK27cr (fluorescein-labeled di-crotonylated histone H3 peptide) (peptide)
peptide: QLATKAARKSAPA
modifications: N-terminal 6-fluorescein (FAM); crotonyl-lysine at K23 and K27; C-terminal amide
Kd [6]: 1.3 µM
